# Target: human orexin-2 receptor (Homo sapiens (Human), UniProt O43614)
# Amino acid sequences for entries named in this document (tags omitted).
# UniProt O43614, whole entry: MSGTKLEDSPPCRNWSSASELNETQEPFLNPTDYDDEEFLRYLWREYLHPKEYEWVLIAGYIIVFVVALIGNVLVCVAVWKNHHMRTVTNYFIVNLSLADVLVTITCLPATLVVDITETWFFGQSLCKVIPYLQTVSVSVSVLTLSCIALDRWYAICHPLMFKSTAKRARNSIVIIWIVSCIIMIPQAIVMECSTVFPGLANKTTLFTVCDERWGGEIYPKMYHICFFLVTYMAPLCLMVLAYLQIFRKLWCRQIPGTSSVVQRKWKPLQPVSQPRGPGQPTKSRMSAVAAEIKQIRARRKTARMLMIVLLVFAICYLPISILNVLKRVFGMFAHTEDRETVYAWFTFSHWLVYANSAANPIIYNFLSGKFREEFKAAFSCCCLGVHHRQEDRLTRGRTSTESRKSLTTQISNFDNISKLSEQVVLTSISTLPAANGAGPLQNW
# Assay: In vitro intracellular calcium measurements (FLIPR), antagonism of orexin-A response, OX2
# Type: cell-based
# Details: CHO cells expressing human orexin-2 receptor; 3 nM orexin-A; compound incubation time 120 min
row,SMILES,IC50
1,"COc1ccc2[nH]cc(CCn3cc(NC(=O)c4ncsc4-c4ccc(OC)nc4)cn3)c2c1 [Example 45, 5-(6-Methoxy-pyridin-3-yl)-thiazole-4-carboxylic acid {1-[2-(5-methoxy-1H-indol-3-yl)-ethyl]-1H-pyrazol-4-yl}-amide]",235 nM
2,"Cc1ccc(-c2ocnc2C(=O)Nc2cnn(CCn3c(C)nc4ccccc43)c2)cc1C [Example 47, 5-(3,4-Dimethyl-phenyl)-oxazole-4-carboxylic acid {1-[2-(2-methyl-benzoimidazol-1-yl)-ethyl]-1H-pyrazol-4-yl}-amide]",757 nM
3,"COc1cc(-c2ocnc2C(=O)Nc2cnn(CCn3c(C)nc4ccccc43)c2)ccc1C [Example 48, 5-(3-Methoxy-4-methyl-phenyl)-oxazole-4-carboxylic acid {1-[2-(2-methyl-benzoimidazol-1-yl)-ethyl]-1H-pyrazol-4-yl}-amide]",3800 nM
4,"COc1cc(OC)nc(NCCn2cc(NC(=O)c3ncoc3-c3ccc(C)c(C)c3)cn2)n1 [Example 49, 5-(3,4-Dimethyl-phenyl)-oxazole-4-carboxylic acid {1-[2-(4,6-dimethoxy-pyrimidin-2-ylamino)-ethyl]-1H-pyrazol-4-yl}-amide]",51 nM
5,"COc1cc(OC)nc(NCCn2cc(NC(=O)c3ncoc3-c3ccc(C)c(OC)c3)cn2)n1 [Example 50, 5-(3-Methoxy-4-methyl-phenyl)-oxazole-4-carboxylic acid {1-[2-(4,6-dimethoxy-pyrimidin-2-ylamino)-ethyl]-1H-pyrazol-4-yl}-amide]",238 nM
6,"COc1cc(OC)nc(NCCn2cc(NC(=O)c3ncoc3-c3cccc(C#N)c3)cn2)n1 [Example 51, 5-(3-Cyano-phenyl)-oxazole-4-carboxylic acid {1-[2-(4,6-dimethoxy-pyrimidin-2-ylamino)-ethyl]-1H-pyrazol-4-yl}-amide]",353 nM
7,"COc1cc(OC)nc(NCCn2cc(NC(=O)c3ncoc3-c3cccc(F)c3)cn2)n1 [Example 52, 5-(3-Fluoro-phenyl)-oxazole-4-carboxylic acid {1-[2-(4,6-dimethoxy-pyrimidin-2-ylamino)-ethyl]-1H-pyrazol-4-yl}-amide]",25 nM
8,"COc1cc(OC)nc(NCCn2cc(NC(=O)c3ncoc3-c3ccccc3F)cn2)n1 [Example 53, 5-(2-Fluoro-phenyl)-oxazole-4-carboxylic acid {1-[2-(4,6-dimethoxy-pyrimidin-2-ylamino)-ethyl]-1H-pyrazol-4-yl}-amide]",41 nM
9,"COc1ccc(-c2ocnc2C(=O)Nc2cnn(CCNc3nc(OC)cc(OC)n3)c2)cc1 [Example 55, 5-(4-Methoxy-phenyl)-oxazole-4-carboxylic acid {1-[2-(4,6-dimethoxy-pyrimidin-2-ylamino)-ethyl]-1H-pyrazol-4-yl}-amide]",100 nM
10,"Cc1cccc(-c2ocnc2C(=O)Nc2cnn(CCc3cn(C)c4ccccc34)c2)c1 [Example 57, 5-m-Tolyl-oxazole-4-carboxylic acid {1-[2-(1-methyl-1H-indol-3-yl)-ethyl]-1H-pyrazol-4-yl}-amide]",265 nM
11,"Cc1cccc(-c2ocnc2C(=O)Nc2cnn(CCc3c[nH]c4ccccc34)c2)c1 [Example 58, 5-m-Tolyl-oxazole-4-carboxylic acid {1-[2-(1H-indol-3-yl)-ethyl]-1H-pyrazol-4-yl}-amide]",236 nM
12,"COc1ccc2c(CCn3cc(NC(=O)c4ncoc4-c4cccc(C)c4)cn3)cn(C)c2c1 [Example 60, 5-m-Tolyl-oxazole-4-carboxylic acid {1-[2-(6-methoxy-1-methyl-1H-indol-3-yl)-ethyl]-1H-pyrazol-4-yl}-amide]",665 nM
13,"Cc1cccc(-c2ocnc2C(=O)Nc2cnn(CCc3c[nH]c4ccc(F)cc34)c2)c1 [Example 62, 5-m-Tolyl-oxazole-4-carboxylic acid {1-[2-(5-fluoro-1H-indol-3-yl)-ethyl]-1H-pyrazol-4-yl}-amide]",98 nM
14,"COc1cccc2[nH]cc(CCn3cc(NC(=O)c4ncoc4-c4cccc(C)c4)cn3)c12 [Example 65, 5-m-Tolyl-oxazole-4-carboxylic acid {1-[2-(4-methoxy-1H-indol-3-yl)-ethyl]-1H-pyrazol-4-yl}amide]",111 nM
15,"COc1ccc2[nH]cc(CCn3cnc(NC(=O)c4ncoc4-c4cccc(C)c4)c3)c2c1 [Example 66, 5-m-Tolyl-oxazole-4-carboxylic acid {1-[2-(5-methoxy-1H-indol-3-yl)-ethyl]-1H-imidazol-4-yl}-amide]",27 nM
16,"CCOc1cc(OC)nc(CCCn2cc(NC(=O)c3ncoc3-c3cccc(C)c3)cn2)n1 [Example 68, 5-m-Tolyl-oxazole-4-carboxylic acid {1-[3-(4-ethoxy-6-methoxy-pyrimidin-2-yl)-propyl]-1H-pyrazol-4-yl}-amide]",84 nM
17,"COc1nc(OC)c2ccn(CCn3cc(NC(=O)c4ncoc4-c4cccc(C)c4)cn3)c2n1 [Example 80, 5-m-Tolyl-oxazole-4-carboxylic acid {1-[2-(2,4-dimethoxy-pyrrolo[2,3-d]pyrimidin-7-yl)-ethyl]-1H-pyrazol-4-yl}-amide]",94 nM
18,"COc1cc2ccn(CCn3cc(NC(=O)c4ncoc4-c4cccc(C)c4)cn3)c2cn1 [Example 93, 5-m-Tolyl-oxazole-4-carboxylic acid {1-[2-(5-methoxy-pyrrolo[2,3-c]pyridin-1-yl)-ethyl]-1H-pyrazol-4-yl}-amide]",230 nM

# Same assay, conditions: CHO cells expressing human orexin-2 receptor; 3 nM orexin-A; compound incubation time of 10 min (#)
row,SMILES,IC50
1,"Cc1cccc(-c2ocnc2C(=O)Nc2cnn(CCOc3ccc4c(c3)OCO4)c2)c1 [Example 69, 5-m-Tolyl-oxazole-4-carboxylic acid {1-[2-(benzo[1,3]dioxo1-5-yloxy)-ethyl]-1H-pyrazol-4-yl}-amide]",414 nM
2,"Cc1cccc(-c2ocnc2C(=O)Nc2cnn(CCSc3nc4ccccc4o3)c2)c1 [Example 70, 5-m-Tolyl-oxazole-4-carboxylic acid {1-[2-(benzooxazol-2-ylsulfanyl)-ethyl]-1H-pyrazol-4-yl}-amide]",110 nM
3,"Cc1cccc(-c2ocnc2C(=O)Nc2cnn(CCOc3ccc4nc(C)oc4c3)c2)c1 [Example 71, 5-m-Tolyl-oxazole-4-carboxylic acid {1-[2-(2-methyl-benzooxazol-6-yloxy)-ethyl]-1H-pyrazol-4-yl}-amide]",949 nM
4,"Cc1cccc(-c2ocnc2C(=O)Nc2cnn(CCOc3cc(C(F)(F)F)n(C)n3)c2)c1 [Example 73, 5-m-Tolyl-oxazole-4-carboxylic acid {1-[2-(1-methyl-5-trifluoromethyl-1H-pyrazol-3-yloxy)-ethyl]-1H-pyrazol-4-yl)-amide]",1990 nM
5,"Cc1cccc(-c2ocnc2C(=O)Nc2cnn(CCn3ccc4ccc(F)cc43)c2)c1 [Example 74, 5-m-Tolyl-oxazole-4-carboxylic acid {1-[2-(6-fluoro-indol-1-yl)-ethyl]-1H-pyrazol-4-yl}-amide]",67 nM
6,"Cc1cccc(-c2ocnc2C(=O)Nc2cnn(CCn3ccc4cccc(F)c43)c2)c1 [Example 75, 5-m-Tolyl-oxazole-4-carboxylic acid {1-[2-(7-fluoro-indol-1-yl)-ethyl]-1H-pyrazol-4-yl}-amide]",180 nM
7,"Cc1cccc(-c2ocnc2C(=O)Nc2cnn(CCn3ccc4cc(C)ccc43)c2)c1 [Example 77, 5-m-Tolyl-oxazole-4-carboxylic acid {1-[2-(5-methyl-indol-111)-ethyl]-1H-pyrazol-4-yl}-amide]",204 nM
8,"COc1ccnc2c1ccn2CCn1cc(NC(=O)c2ncoc2-c2cccc(C)c2)cn1 [Example 79, 5-m-Tolyl-oxazole-4-carboxylic acid {1-[2-(4-methoxy-pyrrolo[2,3-b]pyridin-1yl)-ethyl]-1H-pyrazol-4-yl}-amide]",548 nM
9,"Cc1ccc(OCCn2cc(NC(=O)c3ncoc3-c3cccc(C)c3)cn2)nc1 [Example 81, 5-m-Tolyl-oxazole-4-carboxylic acid {1-[2-(5-methyl-pyridin-2-yloxy)-ethyl]-1H-pyrazol-4-yl)-amide]",1850 nM
10,"Cc1cccc(-c2ocnc2C(=O)Nc2cnn(CCOc3cccc(F)c3)c2)c1 [Example 82, 5-m-Tolyl-oxazole-4-carboxylic acid {1-[2-(3-fluoro-phenoxy)-ethyl]-1H-pyrazol-4-yl)-amide]",931 nM
11,"Cc1cccc(-c2ocnc2C(=O)Nc2cnn(CCOc3ccc(F)cc3)c2)c1 [Example 84, 5-m-Tolyl-oxazole-4-carboxylic acid {1-[2-(4-fluoro-phenoxy)-ethyl]-1H-pyrazol-4-yl)-amide]",973 nM
12,"Cc1cccc(-c2ocnc2C(=O)Nc2cnn(CCn3ccc4cccc(C)c43)c2)c1 [Example 85, 5-m-Tolyl-oxazole-4-carboxylic acid {1-[2-(7-methyl-indol-111)-ethyl]-1H-pyrazol-4-yl}-amide]",376 nM
13,"Cc1cccc(-c2ocnc2C(=O)Nc2cnn(CCOc3cccc(C)n3)c2)c1 [Example 87, 5-m-Tolyl-oxazole-4-carboxylic acid {1-[2-(6-methyl-pyridin-2-yloxy)-ethyl]-1H-pyrazol-4-yl)-amide]",794 nM
14,"Cc1cccc(-c2ocnc2C(=O)Nc2cnn(CCOc3cc(C)ccn3)c2)c1 [Example 90, 5-m-Tolyl-oxazole-4-carboxylic acid {1-[2-(4-methyl-pyridin-2-yloxy)-ethyl]-1H-pyrazol-4-yl)-amide]",2020 nM
15,"Cc1cccc(-c2ocnc2C(=O)Nc2cnn(CCn3ccc4ccc(Cl)nc43)c2)c1 [Example 91, 5-m-Tolyl-oxazole-4-carboxylic acid {1-[2-(6-chloro-pyrrolo[2,3-b]pyridin-1-yl)-ethyl]-1H-pyrazol-4-yl}-amide]",108 nM
16,"COc1cc(OC)c2ccn(CCn3cc(NC(=O)c4ncoc4-c4cccc(C)c4)cn3)c2n1 [Example 92, 5-m-Tolyl-oxazole-4-carboxylic acid {1-[2-(4,6-dimethoxy-pyrrolo[2,3-b]pyridin-1-yl)-ethyl]-1H-pyrazol-4-yl}-amide]",65 nM
17,"COc1ncnc2c1ncn2CCn1cc(NC(=O)c2ncoc2-c2cccc(C)c2)cn1 [Example 94, 5-m-Tolyl-oxazole-4-carboxylic acid {1-[2-(6-methoxy-purin-9-yl)-ethyl]-1H-pyrazol-4-yl)-amide]",1080 nM

# — patent US9303023B2, “Pyrazole and imidazole derivatives useful as orexin antagonists” (ACTELION PHARMACEUTICALS LTD., priority 2011, dated 2016)
